Drawing on US20120077957A1, “Lactam-Bridged Melanocortin Receptor-Specific Peptides” (PALATIN TECHNOLOGIES, INC., priority 2009, published 2012), this text covers Ki and EC50 for three compounds.

The chains behind the UniProt entries cited, without tags or fusion partners.
UniProt P32245, whole entry: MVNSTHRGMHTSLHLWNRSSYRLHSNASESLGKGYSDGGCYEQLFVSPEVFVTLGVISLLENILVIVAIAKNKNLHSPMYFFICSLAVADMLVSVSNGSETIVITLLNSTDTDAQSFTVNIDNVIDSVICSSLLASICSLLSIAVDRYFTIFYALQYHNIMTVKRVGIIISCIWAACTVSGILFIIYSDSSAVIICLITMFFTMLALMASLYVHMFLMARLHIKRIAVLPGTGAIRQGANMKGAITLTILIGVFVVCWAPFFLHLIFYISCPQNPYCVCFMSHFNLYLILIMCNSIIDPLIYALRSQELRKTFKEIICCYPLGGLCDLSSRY

Like-named read-outs stand apart in the source and are kept apart here.

The target in test [1] is T1, human MC4-R (Homo sapiens, UniProt P32245).
T1 construct: expressed in transfected cells; host or cells: HEK293 T-REx (tetracycline-regulated, Invitrogen); cell line from Palatin Technologies with license from the University of Michigan
Nature of the test: Competitive inhibition binding assay with [I125]-NDP-α-MSH or Eu-NDP-α-MSH, membranes of HEK-293 cells expressing recombinant hMC4-R. On the procedure:
A competitive inhibition binding assay was performed using membrane homogenates prepared from HEK-293 cells that express recombinant hMC4-R, hMC3-R, or hMC5-R, and from B-16 mouse melanoma cells (containing endogenous MC1-R). In some instances, HEK-293 cells that express recombinant hMC1-R were employed. In the examples that follow, all MC3-R, MC4-R and MC5-R values are for human recombinant receptors. […] After incubation for 60 minutes at 37° C., the assay mixture was filtered and the membranes washed three times with ice-cold buffer. Filters were dried and counted in a gamma counter for bound radioactivity. […] Maximal specific binding (100%) was defined as the difference in radioactivity (cpm) bound to cell membranes in the absence and presence of 1 μM NDP-α-MSH. […] Ki values for test peptides of the present invention were determined using Graph-Pad Prism® curve-fitting software.
Alternatively, a competitive inhibition binding assay was performed employing Eu-NDP-α-MSH (PerkinElmer Life Sciences catalog No. AD0225) with determination by time-resolved fluorometry (TRF) of the lanthanide chelate. […] After incubation for 90 minutes at 37° C., the reaction was stopped by filtration over AcroWell 96-well filter plates (Pall Life Sciences). The filter plates were washed 4 times with 200 μL of ice-cold phosphate-buffered saline. DELFIA Enhancement solution (PerkinElmer Life Sciences) was added to each well. […] Each assay was conducted in duplicate and mean values were utilized. Ki values were determined by curve-fitting with Graph-Pad Prism® software using a one-site fixed-slope competition binding model.

Test [2] concerns the target T1, human MC4-R. Nature of the test: cAMP functional assay in HEK-293 T-REx cells expressing human MC4-R, induced with doxycycline 0.1 ng/mL (low density). In kind it is cell-based. The note with it: averages of all comparable assays. From the text: A HEK293 cell line transfected with human MC4-R (from Palatin Technologies, US, with license from the University of Michigan) was used. The human MC4-R was introduced to HEK293 by using the T-REx™ System, Invitrogen. The T-REx™ System employs a tetracycline-regulated mammalian expression system that uses regulatory elements from the E. coli Tn10-encoded tetracycline (Tet) resistance operon. By use of the T-REx™ System, expression of the gene of interest, the human MC4-R gene, is repressed in the absence of tetracycline or doxycycline and induced in the presence of tetracycline or doxycycline (see T-REx™ System Manual, published by Invitrogen).
Cells were then counted and volume was adjusted to 5×10^4 cells per 200 μL.
The cells were then dispensed into 96-well plates (BD 353916) in 198 μL (about 5×10^4) cells/well and incubated for 10 minutes at 37° C. […]
Agonist stimulation of the MC4-R activates adenylate cyclase, which is an enzyme that catalyses the formation 3′,5′-cyclic adenosine monophosphate (cAMP) from adenosine triphosphate (ATP). […] Fluoresence ratios were then calculated as described in the CisBio HTRF kit, with GraphPad Prism software used to plot the change in fluorescence percent values versus cAMP concentration using the variable slope dose response curve and, based on calculated cAMP concentrations, to determine EC50 and Emax values. […]

Where [3] appears, read: human MC4-R, averages of all comparable assays, read-out: Ki.

In general, Ki refers to a measure of affinity in units of concentration, obtained from inhibition or displacement. The term EC50 denotes the midpoint of the concentration-response curve. Read a high EC50 as a less potent agent. With `CC(=O)N[C@@H](CCCNC(=N)N)C(=O)N[C@H]1CCC(=O)NCCC[C@@H](C(N)=O)NC(=O)[C@H](Cc2c[nH]c3ccccc23)NC(=O)[C@H](CCCNC(=N)N)NC(=O)[C@@H](Cc2ccccc2)NC(=O)[C@H](CCCNC(=N)N)NC1=O` [No. 10, Ac-Arg-cyclo(Glu-Arg-D-Phe-Arg-Trp-Orn)-NH2], the Ki in test [1] (setting [3]) amounted to 4 nM. In test [2], this compound yielded an EC50 of 0.7 nM.
As for `CC(=O)N[C@@H](CCCNC(=N)N)C(=O)N[C@H]1CCC(=O)NCCC[C@@H](C(N)=O)NC(=O)[C@H](Cc2c[nH]c3ccccc23)NC(=O)[C@H](CCCNC(=N)N)NC(=O)[C@@H](Cc2ccccc2)NC(=O)[C@H](CCCNC(N)=O)NC1=O` [No. 15, Ac-Arg-cyclo(Glu-Cit-D-Phe-Arg-Trp-Orn)-NH2], the Ki in test [1] was determined as 6 nM. In test [2], this compound returned an EC50 of 2 nM.
Turning to `CC(=O)N[C@@H](CCCNC(=N)N)C(=O)N[C@H]1CC(=O)NCCCC[C@@H](C(N)=O)NC(=O)[C@H](Cc2c[nH]c3ccccc23)NC(=O)[C@H](CCCNC(=N)N)NC(=O)[C@@H](Cc2ccccc2)NC(=O)[C@H](Cc2c[nH]cn2)NC1=O` [reference compound], the Ki in test [1] (setting [3]) was found to be 2 nM.
